# In PubChem BioAssay AID504707 (The Scripps Research Institute Molecular Screening Center, 2011):
# Only a part is listed here, and it is no random draw. Some structures show a salt or complex split into parts, the way the source records it. The source made the active and inactive calls.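 How the source made its calls: active means percent activation above the mean of all tested compounds plus 3 SD (cut at about 19% in these data); inactive means the rest.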
# Target: cAMP-dependent protein kinase type I-alpha regulatory subunit (Bos taurus) + cAMP-dependent protein kinase catalytic subunit beta (Mus musculus) (UniProt P00514+P68181)
# Experiment: activators of PKA-R1A holoenzyme, primary screen, biochemical, fluorescence polarization, Cy5-IP20, bovine R1A, mouse PKAc (AID 504707);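 further: higher means more PKAc released from R1A so a rise in polarization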
# Settings: PKA-R1A dissociation, at 11.4 µM, stronger effect = higher value, scaled: DMSO 0%, 113 µM cGMP 100%
row,SMILES,activation
1,CCOP(C)(=S)SCC(=O)NC(C)(CC)C(=O)O (stereo unspecified),inactive: 1.33%
2,CP(=O)(Nc1ccc(SC(F)(F)F)cc1)Oc1ccc(F)cc1 (stereo unspecified),inactive: -3.38%
3,Cc1ccccc1NP(C)(=O)Nc1ccccc1C,inactive: -1.25%
4,CP(=O)(Nc1ccc2c(c1)OCCO2)Oc1ccccc1 (stereo unspecified),inactive: 5.07%
5,COc1ccc(NP(C)(=O)Oc2ccccc2OC)cc1 (stereo unspecified),inactive: 2.58%
6,CN(C)CCOC(=O)C(O)(c1ccccc1)C1CCCCC1 (stereo unspecified),inactive: -1.61%
7,COc1ccc(OP(C)(=O)Nc2cccc(Br)c2)cc1 (stereo unspecified),inactive: -12.6%
8,Cc1c(C(c2ccc3c(c2)OCO3)c2c(C)n(C)n(-c3ccccc3)c2=O)c(=O)n(-c2ccccc2)n1C.O=[N+]([O-])c1cc([N+](=O)[O-])c(O)c([N+](=O)[O-])c1,inactive: -1.57%
9,Cc1cc(-c2cccc3ccccc23)c(C)cn1.O=[N+]([O-])c1cc([N+](=O)[O-])c(O)c([N+](=O)[O-])c1,inactive: -12.1%
10,O=[N+]([O-])c1cc([N+](=O)[O-])c(NCC2CCS(=O)(=O)C2)c([N+](=O)[O-])c1 (stereo unspecified),inactive: 3.54%
11,O=[N+]([O-])c1ccc(OP2(=O)COCCO2)cc1 (stereo unspecified),inactive: -4.69%
12,COc1ccc(OP(C)(=O)Nc2ccc(SC(F)(F)F)cc2)cc1 (stereo unspecified),inactive: 11.1%
13,CCOC(=O)c1ccc(NP(C)(=O)Oc2ccc(F)cc2)cc1 (stereo unspecified),inactive: -4.24%
14,CCCCCOc1ccc(NP(C)(=O)Oc2ccc(Cl)cc2Cl)cc1 (stereo unspecified),inactive: -12.6%
15,O=[N+]([O-])c1cc([N+](=O)[O-])c(OC2CCCCC2O)c([N+](=O)[O-])c1 (stereo unspecified),inactive: -3.56%
16,CP(=O)(Nc1ccccc1)Oc1ccc(F)cc1 (stereo unspecified),inactive: -8.94%
17,CCN(CC)CCCOC(=O)C(O)(c1ccccc1)C1CCCCC1 (stereo unspecified),inactive: -3.78%
18,Cc1c([N+](=O)[O-])cc([N+](=O)[O-])c(Br)c1[N+](=O)[O-],inactive: -4.17%
19,CC(C)c1ccc(OP(C)(=O)Nc2ccc(SC(F)(F)F)cc2)cc1 (stereo unspecified),inactive: -21.7%
20,CP(=O)(Nc1ccccc1F)Oc1ccccc1 (stereo unspecified),inactive: -1.38%
21,O=[N+]([O-])c1cc([N+](=O)[O-])c(Nc2ccc(Cl)cc2)c([N+](=O)[O-])c1,inactive: -0.38%
22,COc1ccc2c(c1O)-c1c(O)c(OC)cc3c1[C@H](C2)[N+](C)(C)CC3.O=[N+]([O-])c1cc([N+](=O)[O-])c([O-])c([N+](=O)[O-])c1[O-],inactive: -1.85%
23,O=C(OCCN1CCN(CCOCc2ccccc2)CC1)C(O)(c1ccccc1)c1ccccc1,inactive: -0.16%

row,SMILES,activation
1,O=C(OC1CN2CCC1CC2)c1ccc([N+](=O)[O-])cc1 (stereo unspecified),inactive: -9.53%
2,CN(C)CCOC(=O)C(O)(c1ccccc1)C1CCCC1 (stereo unspecified),inactive: -9.02%
3,COc1ccc(OP(C)(=O)Nc2ccccn2)cc1 (stereo unspecified),inactive: 12.2%
4,COc1ccccc1OP(C)(=O)Nc1ccc(Br)cc1 (stereo unspecified),inactive: 4.72%
5,CCc1ccc(OP(C)(=O)O)cc1,inactive: -10.1%
6,CP(=O)(Nc1ccccn1)Oc1ccccc1 (stereo unspecified),inactive: -0.91%
7,COc1ccccc1OP(C)(=O)Nc1ccc(C)cc1C (stereo unspecified),inactive: 7.69%
8,O=[N+]([O-])c1cc([N+](=O)[O-])c(Nc2ccccn2)c([N+](=O)[O-])c1,inactive: 0.1%
9,Cc1c(NP(C)(=O)Oc2ccc(C(C)C)cc2)c(=O)n(-c2ccccc2)n1C (stereo unspecified),inactive: 7.22%
10,COc1ccc(OP(C)(=O)Nc2ccccc2Br)cc1 (stereo unspecified),inactive: -17%
11,COc1ccccc1OP(C)(=O)Nc1ccc(C)c(C)c1 (stereo unspecified),inactive: -0.81%
12,O=C1C(O)=C([N+](=O)[O-])C(=O)C(O)=C1[N+](=O)[O-],inactive: 6.25%
13,Cc1cc(C)cc(OP(C)(=O)Nc2cccc(C(F)(F)F)c2)c1 (stereo unspecified),inactive: -2.47%
14,CP(=O)(OCCOc1ccccc1)OCCOc1ccccc1,inactive: -4.25%
15,CCCCCCCCCCCCCCCC1C[N+](C)(C)CCOP(C)(=O)O1 (stereo unspecified),inactive: -10.2%
16,CP(=O)(Nc1ccc(Cl)cc1Cl)Oc1ccccc1 (stereo unspecified),inactive: -3.8%
17,CP(=O)(OC12CC3CC(CC(C3)C1)C2)OC12CC3CC(CC(C3)C1)C2,inactive: -9.45%
18,CCOC(=O)c1ccc(NP(C)(=O)Oc2ccc(Cl)cc2)cc1 (stereo unspecified),inactive: 3.25%
19,CP(=O)(Oc1ccccc1)N1CCOC1=O (stereo unspecified),inactive: -2.86%
20,CCc1ccc(OP(C)(=O)Nc2cccnc2)cc1 (stereo unspecified),inactive: 1.68%
21,COc1ccccc1OP(C)(=O)Nc1c(C)n(C)n(-c2ccccc2)c1=O (stereo unspecified),inactive: 3.28%
22,O=C(OCCCN1CCCC1)C(O)(c1ccccc1)C1CCCCC1 (stereo unspecified),inactive: -9.41%
23,CCN(CC)CC(O)COC(=O)C(O)(c1ccccc1)C1CCCCC1 (stereo unspecified),inactive: -1.42%
